{
  "source": "patent US5538728A",
  "about": "“Hydrophilic polymer-silicate mineral complex material and use thereof” (priority 1989, dated 1996)",
  "experiment": "solubility test of griseofulvin in water",
  "format": "physicochemical",
  "conditions": "5 mg griseofulvin in one liter water, 37° C.",
  "data": [
    {"smiles": "COC1=CC(=O)C[C@@H](C)[C@]12Oc1c(Cl)c(OC)cc(OC)c1C2=O", "note": "[griseofulvin]", "values": [
      {"measurement": "Amount dissolved (griseofulvin)", "setting": "0 min", "value": 0},
      {"measurement": "Amount dissolved (griseofulvin)", "setting": "3 min", "value": 18},
      {"measurement": "Amount dissolved (griseofulvin)", "setting": "6 min", "value": 24},
      {"measurement": "Amount dissolved (griseofulvin)", "setting": "10 min", "value": 26},
      {"measurement": "Amount dissolved (griseofulvin)", "setting": "15 min", "value": 27},
      {"measurement": "Amount dissolved (griseofulvin)", "setting": "20 min", "value": 28},
      {"measurement": "Amount dissolved (griseofulvin)", "setting": "30 min", "value": 28},
      {"measurement": "Amount dissolved (griseofulvin)", "setting": "60 min", "value": 28}
    ]}
  ]
}
